For this series, the system named is IFNγ-treated, PD-L1-expressing tumor cells (MC38). The experiment in a line: ADCC Reporter Bioassay. The conditions noted are these: IFNγ-treated MC38 target cells. In kind it is cell-based, mouse. As to the method:
ADCC assay: A total of 1×10^4/well target cells MC38 or IFNγ-stimulated MC38 cells were seeded in a 96-well plate 1 day before the experiment. On the day of experiment, different amounts of PBS, IgG Fc (Thermo, cat. no.: 31205) or purified iPDL1 were added into wells containing target MC38 cells followed by the addition of 6×10^4 ADCC bioassay effector cells per well that were provided in the ADCC Reporter Bioassays kit (Promega, Madison, Wis.). After incubation for 6 h at 37° C., the plates were kept on the bench for 15 min. Then each well was added with 75 μL of Bio-Glo Luciferase reagent and kept at RT for 10 min. Luminescence values were measured using a plate reader with glow-type luminescence read capabilities.

B1: iPDL1: murine soluble PD-1 extracellular domain fused with IgG1 Fc as a PD-L1 inhibitor, SEQ ID NO:2 (protein)
chain: MWVRQVPWSFTWAVLQLSWQSGWLLEVPNGPWRSLTFYPAWLTVSEGANATFTCSLSNWSEDLMLNWNRLSPSNQTEKQAAFCNGLSQPVQDARFQIIQLPNRHDFHMNILDTRRNDSGIYLCGAISLHPKAKIEESPGAELVVTERILETSTRYPSPSPKPEGRFQPRGPTIKPCPPCKCPAPNLLGGPSVFIFPPKIKDVLMISLSPIVTCVVVDVSEDDPDVQISWFVNNVEVHTAQTQTHREDYNSTLRVVSALPIQHQDWMSGKEFKCKVNNKDLPAPIERTISKPKGSVRAPQVYVLPPPEEEMTKKQVTLTCMVTDFMPEDIYVEWTNNGKTELNYKNTEPVLDSDGSYFMYSKLRVEKKNWVERNSYSCSVVHEGLHNHHTTKSFSRTPGK
modifications: Mouse
In the case of B1, the “antibody-dependent cell-mediated cytotoxicity (ADCC)” value is recorded as “efficiently mediated antibody-dependent cell-mediated cytotoxicity”.

These data come from patent US20220064672A1, “ENGINEERED ONCOLYTIC VIRUSES EXPRESSING PD-L1 INHIBITORS AND USES THEREOF” (priority 2020, published 2022).
